# Key:
# Sequences of proteins named here, by UniProt entry; tags and fusion partners are left off.
# UniProt P25102, whole entry: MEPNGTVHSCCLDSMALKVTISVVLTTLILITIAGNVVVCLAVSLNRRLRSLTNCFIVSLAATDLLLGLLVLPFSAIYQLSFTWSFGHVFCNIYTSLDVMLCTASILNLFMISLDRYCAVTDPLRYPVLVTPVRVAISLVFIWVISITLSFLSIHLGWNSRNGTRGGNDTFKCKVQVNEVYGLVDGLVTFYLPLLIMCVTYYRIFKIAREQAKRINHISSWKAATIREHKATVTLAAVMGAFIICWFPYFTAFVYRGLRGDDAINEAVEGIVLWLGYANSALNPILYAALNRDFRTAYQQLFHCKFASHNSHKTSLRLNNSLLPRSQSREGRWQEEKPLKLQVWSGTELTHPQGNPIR
# gastric juices [1] = test: Ligature of pylorus, intraduodenal treatment (Table B-2); format: in vivo, Male Wistar rats
# Method: (§1) The method of […] et al. (J. Pharmac. Exp. […] Male Wistar rats, weighing from 250 to 300 grams were used. […] The rats were anesthetised with ethyl ether, a laparotomy was performed and the pylorus was ligatured. The abdominal incision was then sewn. Treatment was effected: (B-1) intravenously, through the femoral vein. (B-2) intraduodenally, prior to sewing the abdominal incision. Three hours after ligature of the pylorus, the volumen of gastric juices was measured, the pH was determined by a Beckman Century SS-1 pH-meter.
# histamine H2 receptors = target: T1, histamine H2 receptors (Rattus norvegicus, UniProt P25102)
# T1 construct: the uterine horn was removed and suspended in a De Jalon solution in an organ bath; from tissue; host or cells: rat uterine horn (rats in estrus, stilbestrol-treated)
# Method: Rats in estrus were used and were administered 100 mcg of stilbestrol by intramuscular (i.m.) injection 30 hours before removing the uterus. On the day of the experiment, the uterine horn was removed and suspended in a De Jalon solution in an organ bath, held at 28° C. and aerated with a flow of 95% O2 and 5% CO2. Thereafter a sustained uterine contraction was induced by the addition of a KCl solution to provide a concentration in the organ bath of 4.2 mg/ml, namely, 10 times that of the De Jalon serum. The uterus was caused to relax with the addition of the amount of histamine required to obtain a good response.
# gastric juices [2] = test: Ligature of pylorus, intravenous treatment (Table B-1); format: in vivo, Male Wistar rats; conditions: 10 mg/kg i.v., 3 h after ligature
# Method: as §1
# [3] = 1 mg/kg intraduodenal, lot of 4 rats
# [4] = 1 mg/kg intraduodenal, lot of 5 rats
# [5] = 3 mg/kg intraduodenal, 4 or 5 rats
# [6] = 10 mg/kg intraduodenal, first lot (4 or 5 rats)
# [7] = 10 mg/kg intraduodenal, lot of 8 rats
# [8] = 10 mg/kg intraduodenal, second lot (4 or 5 rats)
smiles,measurement,setting,value
"CN(C)Cc1ccc(CSCCNC(=C[N+](=O)[O-])NCCO)o1.Cl [Example 1, (b), N-[2-[[(5-[(dimethylamino)methyl]-2-furanyl)methyl]thio]ethyl]-N'-(2-hydroxyethyl)-2-nitro-1,1-ethenediamine hydrochloride]","Total acidity (titration with 0,1N NaOH), percentage increase relative to control",gastric juices [1]; [3],14%
same,"Volume of gastric juice, percentage increase relative to control",gastric juices [1]; [3],1%
same,"pH of gastric juice, percentage increase relative to control",gastric juices [1]; [3],16%
same,"Total acidity (titration with 0,1N NaOH), percentage decrease relative to control",gastric juices [1]; [4],13%
same,"Volume of gastric juice, percentage decrease relative to control",gastric juices [1]; [4],15%
same,"pH of gastric juice, percentage increase relative to control",gastric juices [1]; [4],50%
same,"Total acidity (titration with 0,1N NaOH), percentage decrease relative to control",gastric juices [1]; [5],58%
same,"Volume of gastric juice, percentage decrease relative to control",gastric juices [1]; [5],30%
same,"pH of gastric juice, percentage increase relative to control",gastric juices [1]; [5],25%
same,"Total acidity (titration with 0,1N NaOH), percentage decrease relative to control",gastric juices [1]; [6],81%
same,"Volume of gastric juice, percentage decrease relative to control",gastric juices [1]; [6],46%
same,"pH of gastric juice, percentage increase relative to control",gastric juices [1]; [6],83%
same,"Total acidity (titration with 0,1N NaOH), percentage decrease relative to control",gastric juices [1]; [7],41%
same,"Volume of gastric juice, percentage decrease relative to control",gastric juices [1]; [7],2.9%
same,"pH of gastric juice, percentage increase relative to control",gastric juices [1]; [7],163%
same,"Total acidity (titration with 0,1N NaOH), percentage decrease relative to control",gastric juices [1]; [8],82%
same,"Volume of gastric juice, percentage decrease relative to control",gastric juices [1]; [8],57%
same,"pH of gastric juice, percentage increase relative to control",gastric juices [1]; [8],313%
same,"Total acidity (titration with 0,1N NaOH), percentage decrease relative to control","gastric juices [1]; 25 mg/kg intraduodenal, 5 rats",85%
same,"Volume of gastric juice, percentage decrease relative to control","gastric juices [1]; 25 mg/kg intraduodenal, 5 rats",62%
same,"pH of gastric juice, percentage increase relative to control","gastric juices [1]; 25 mg/kg intraduodenal, 5 rats",170%
same,selectivity for H2 receptors of rat uterus,histamine H2 receptors,selective effect
same,"Volume of gastric juice, percentage decrease relative to control",gastric juices [2]; first lot (2 or 3 rats),51.9%
same,"pH of gastric juice, percentage increase relative to control",gastric juices [2]; first lot (2 or 3 rats),263.2%
same,"Total acidity (titration with 0,1N NaOH), percentage decrease relative to control",gastric juices [2]; lot of 5 rats,89.2%
same,"Volume of gastric juice, percentage decrease relative to control",gastric juices [2]; lot of 5 rats,62.6%
same,"pH of gastric juice, percentage increase relative to control",gastric juices [2]; lot of 5 rats,119.2%
same,"Total acidity (titration with 0,1N NaOH), percentage decrease relative to control",gastric juices [2]; lot of 8 rats,78.2%
same,"Volume of gastric juice, percentage decrease relative to control",gastric juices [2]; lot of 8 rats,0%
same,"pH of gastric juice, percentage increase relative to control",gastric juices [2]; lot of 8 rats,134.4%

# Reference: patent US4515806A, “Furan derivatives and addition salts thereof pharmaceutical compositions and the therapeutical applications thereof” (priority 1982, dated 1985)
